Our source for the max response, negative = inhibition values is PubChem BioAssay AID652054 (National Center for Advancing Translational Sciences (NCATS), 2013).

Amino acid sequences for entries named in this document (tags omitted).
UniProt P35462, whole entry: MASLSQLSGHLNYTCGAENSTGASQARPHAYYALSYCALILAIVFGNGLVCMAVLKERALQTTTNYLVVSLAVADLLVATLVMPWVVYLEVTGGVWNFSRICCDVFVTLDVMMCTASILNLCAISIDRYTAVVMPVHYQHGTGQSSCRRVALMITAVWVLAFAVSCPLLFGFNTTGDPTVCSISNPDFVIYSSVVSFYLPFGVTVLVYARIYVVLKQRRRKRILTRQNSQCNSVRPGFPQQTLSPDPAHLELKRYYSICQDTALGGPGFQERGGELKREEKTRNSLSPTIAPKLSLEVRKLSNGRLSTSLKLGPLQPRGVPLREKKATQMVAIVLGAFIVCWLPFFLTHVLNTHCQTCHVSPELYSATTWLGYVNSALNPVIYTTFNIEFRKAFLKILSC

Molecules are shown by their SMILES. The entries are a selection whose mix differs from that of the whole data set. Results filed as inconclusive are left out. Some salts or complexes appear as unconnected parts, following the source record. Active and inactive are the calls of the source. Cut-off read from the data, not from the text of the source: active = max response below about -50%; inconclusive = no clear call, values can overlap the other calls; inactive = above that.
% is set by controls: 0 for no effect and ±100 for the full control effect.

The test concerns the target D(3) dopamine receptor (Homo sapiens) (UniProt P35462). Description: qHTS of D3 Dopamine Receptor Antagonist: qHTS. The note with it: D3R cells, DiscoveRx beta-arrestin luminescence, antagonist mode; hits give low values. In a few lines:
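Cells expressing the human receptor were seeded at 1500 cells/well, incubated overnight at 37 degrees C in 5% CO2, then exposed to library compounds with dopamine controls for 90 minutes at 37 degrees C before luminescent detection.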
As for `O=C(NCC1(N2CCCCC2)CCCCC1)c1ccc(=O)[nH]c1`, the max response, negative = inhibition is inactive: 1.51%.
As to `CCCCn1nnnc1C(c1cccs1)N1CCC(n2c(=O)[nH]c3ccccc32)CC1` (configuration not stated), the max response, negative = inhibition is inactive: -3.15%.
Turning to `CCCCn1nnnc1C(CC)N1CCC(n2c(=O)[nH]c3ccccc32)CC1` (configuration not stated), the max response, negative = inhibition was inactive: 22.9%.
For the compound `O=C(NCC1(N2CCCCC2)CCCCC1)c1cccs1`, the max response, negative = inhibition is inactive: 2.63%.
To `CCOC(=O)N1CCC(Nc2cccc(C)c2)CC1` belongs inactive: 0.523%.
To `O=c1[nH]c2ccccc2n1C1CCN(C(c2cccc3ccccc23)c2nnnn2C2CCCC2)CC1` (configuration not stated) belongs inactive: 12.2%.
To `O=c1[nH]c2ccccc2n1C1CCN(C(c2ccccc2)c2nnnn2C2CCCCC2)CC1` (configuration not stated) belongs inactive: 62.9%; to `O=C(NCC1(N2CCCCC2)CCCCC1)c1ccc(F)cc1`, inactive: 0.368%; to `O=P1(N(CCCl)CCCl)SCCCS1`, inactive: 4.96%.
With `CCCCn1nnnc1C(c1cc2ccccc2o1)N1CCC(n2c(=O)[nH]c3ccccc32)CC1` (configuration not stated), the max response, negative = inhibition was inactive: 39.9%.
Consider `CCCCOc1ccc(C(=O)NCC2(N3CCOCC3)CCCCC2)cc1`, for which the max response, negative = inhibition is inactive: 12.1%.
With `CCOC(=O)N1CCC(Nc2ccc(F)cc2)CC1`, the max response, negative = inhibition is inactive: 5.82%.
Next, `CC(C)(C)n1nnnc1C(c1ccccc1)N1CCC(n2c(=O)[nH]c3ccccc32)CC1` (configuration not stated): inactive: -22.5%; `O=C1CCN(Cc2ccccc2)CC1`: inactive: 0%.
Next, `CCOc1ccc(C)cc1CN(CCCl)CCCl`: inactive: -13.5%.
To `COc1cc(C(=O)NCC2(N3CCCCC3)CCCCC2)ccc1OC(F)F` belongs inactive: -18.5%; to `O=C(NCC1(N2CCOCC2)CCCCC1)c1cc(=O)[nH]c2ccccc12`, inactive: -18.2%; to `CCCCn1nnnc1C(c1cccc2ccccc12)N1CCC(n2c(=O)[nH]c3ccccc32)CC1` (configuration not stated), inactive: 15.1%.
For the compound `CN1CCN(CCOC(=O)C(O)(c2ccccc2)c2ccccc2)CC1`, the max response, negative = inhibition was inactive: -15.8%.
Next, `COc1ccc(NC2CCN(C(=O)OC(C)(C)C)CC2)cc1`: inactive: 6.94%; `CC(C)c1ccc(C(=O)NCC2(N3CCOCC3)CCCCC2)cc1`: inactive: -21.3%.
For the compound `CCN1CCC(Nc2ccc(Cl)cc2)CC1`, the max response, negative = inhibition was inactive: 8.05%.
To `N#CC1(Nc2ccccc2)CCN(CCc2ccccc2)CC1` belongs inactive: 0.185%.
Next, `O=c1[nH]c2ccccc2n1C1CCN(C(c2ccccc2OC(F)(F)F)c2nnnn2C2CCCC2)CC1` (configuration not stated): inactive: 30.8%.
To `O=C(NCC1(N2CCCCC2)CCCCC1)c1cccc([N+](=O)[O-])c1` belongs inactive: -14.3%; to `CC(C)(C)n1nnnc1C(c1ccccc1OC(F)(F)F)N1CCC(n2c(=O)[nH]c3ccccc32)CC1` (configuration not stated), inactive: 33.1%.
Consider `O=C(NCC1(N2CCCCC2)CCCCC1)c1ccc(OC(F)F)cc1`, for which the max response, negative = inhibition is inactive: 8.64%.
Next, `COc1ccc(C(c2nnnn2C2CCCC2)N2CCC(n3c(=O)[nH]c4ccccc43)CC2)cc1` (configuration not stated): inactive: -10.3%; `Cc1ccc(C(=O)NCC2(N(C)C)CCCCC2)o1`: inactive: 15.3%; `CCCOc1ccc(C(=O)NCC2(N(C)C)CCCCC2)cc1OC`: inactive: 11.7%.
Turning to `O=C(OC1CN2CCC1CC2)c1ccc([N+](=O)[O-])cc1` (configuration not stated), the max response, negative = inhibition was inactive: 0.75%.
Next, `COc1ccc2c(c1O)-c1c(O)c(OC)cc3c1[C@H](C2)[N+](C)(C)CC3.O=[N+]([O-])c1cc([N+](=O)[O-])c([O-])c([N+](=O)[O-])c1[O-]`: inactive: -4.42%.
Next, `CN1CCC(Nc2cccc(F)c2)CC1`: inactive: 12.3%; `COc1cc(OC)c(C(=O)NCC2(N(C)C)CCCCC2)cc1OC`: inactive: -17.8%.
In the case of `CCC(c1nnnn1C(C)(C)C)N1CCC(n2c(=O)[nH]c3ccccc32)CC1` (configuration not stated), the max response, negative = inhibition is inactive: 0%.
To `O=C(NCC1(N2CCOCC2)CCCCC1)c1cc(F)c(F)cc1Cl` belongs inactive: 12%; to `CCCCn1nnnc1C(c1ccnc2ccccc12)N1CCC(n2c(=O)[nH]c3ccccc32)CC1` (configuration not stated), inactive: 13.1%; to `CC(C)c1ccc(NC2CCN(C(=O)OC(C)(C)C)CC2)cc1`, inactive: 7.41%.
Take `CCCCn1nnnc1C(c1ccccc1OC(F)(F)F)N1CCC(n2c(=O)[nH]c3ccccc32)CC1` (configuration not stated): the max response, negative = inhibition is inactive: 24.1%.
To `COc1ccc(CN(CCCl)CCCl)cc1Cl` belongs inactive: 5.65%.
Turning to `O=[N+]([O-])c1cc([N+](=O)[O-])c(OC2CCCCC2O)c([N+](=O)[O-])c1` (configuration not stated), the max response, negative = inhibition is inactive: 21.9%.
For the compound `CN(C)c1cccc(C(=O)NCC2(N3CCCCC3)CCCCC2)c1`, the max response, negative = inhibition was inactive: -13.4%.
